TDP1 cell noCPT = qHTS for Inhibitors of human tyrosyl-DNA phosphodiesterase 1 (TDP1): qHTS in cells in absence of CPT; DT40 Tdp1-/- hTDP1 cells, no CPT, ATP luminescence, 48 h; Potency, µM (highest dose often 46.2 µM), for inactives: at the highest dose activity change, negative = growth inhibition, hits mostly inhibitors; 15% of 420,000 active; AID 686978, 2013; further: potency means the concentration at half of the fitted maximal effect; on the % scale 0 is the no-effect control and ±100 the full control effect; nearly all actives have a fitted effect of over 55% in size
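Compound effects on proliferation are scored in DT40 Tdp1-/-;hTDP1 cells in the absence of CPT. ATP levels (CellTiter-Glo luminescence) are recorded after a ≥48 hr, 37 °C incubation.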
uPA surface inh = blocks generation of uPA at the cell surface; cell surface uPA generation assay, qHTS; Potency, µM (highest dose often 38.3 µM), without a hit: at the highest dose activity change, negative = inhibition, hits mostly inhibitors; 0.31% of 330,000 active; AID 540303; active means well fitted inhibition curve with a large enough effect; inconclusive means small, poorly fitted or top-dose-only effect; inactive means no such curve, though single readings can be large or run the other way; tested in mouse RAW 264.7 cells; further: potency means the concentration at half of the fitted maximal effect; on the % scale 0 is the no-effect control and ±100 the full control effect; nearly all actives have a fitted effect of over 55% in size
DT40 TDP1 CPT = growth inhibition of DT40 Tdp1-/-;hTDP1 cells with camptothecin (screen for TDP1 inhibitors). chicken DT40 Tdp1-/-;hTDP1 cells + 20 nM CPT, ATP luminescence, 48 h. Potency, µM (titrated, usually from 46.2 µM), for the others: at the top dose activity change, negative = growth inhibition, hits mostly inhibitors. 12% of 420,000 active; further: potency means the concentration at half of the fitted maximal effect; on the % scale 0 is the no-effect control and ±100 the full control effect; nearly all actives have a fitted effect of over 55% in size
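Chicken DT40 Tdp1-/- cells stably complemented with human TDP1 were seeded at 400 cells/well in medium containing 20 nM camptothecin, exposed to pin-transferred compounds, and grown at 37 °C for at least 48 hr. Viability was read as ATP luminescence.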
miR-21 reporter = raises the signal of a miR-21 reporter | HeLa miR-21 FLuc reporter, luciferase, 48 h | Potency, µM (doses to about 38.3 µM), without a hit: at the top dose reporter change, positive = more light | 340,000 tested, under 10 active | AID 2288; active = well fitted rising curve with a large enough effect; inconclusive = small, poorly fitted or top-dose-only effect; inactive = no such curve, though single readings can be large or run the other way;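 note: % of control where 0% means no effect; miR-21 action dims this reporter so a rising signal means less miR-21 action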
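Compounds were titrated across several concentrations (up to approximately 40 uM) and incubated 48 hours with HeLa miR-21-FLuc reporter cells (miR-21 target sequence downstream of FLuc, endogenous miR-21). Readout was firefly luciferase luminescence after lytic detection reagent.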
TDP1 inh = blocks human tyrosyl-DNA phosphodiesterase 1; Q9NUW8; recombinant TDP1, AlphaScreen DNA substrate cleavage; Potency, µM (highest dose often 130 µM), for the others: at the highest dose activity change, negative = inhibition, actives largely listed as inhibitors; 0.28% of 350,000 active; AID 485290; further: potency means the concentration at half of the fitted maximal effect; on the % scale 0 is the no-effect control and ±100 the full control effect; nearly all actives have a fitted effect of over 40% in size
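Signal: AlphaScreen proximity between streptavidin donor and anti-FITC acceptor beads on intact substrate. Reaction: Tdp1 1 nM, substrate 15 nM final, 5 min RT after 15 min compound preincubation.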
Numbers without * were called inactive; [ ] = dose if it differs, or a comment. An excerpt weighted towards active compounds, which were near 16% of everything screened. Unless noted, the call rests on the fitted dose curve; in most records, active means well fitted curve in the direction sought with a large enough effect; inconclusive means small, poorly fitted or top-dose-only effect, or another doubt; inactive means no such curve, though single readings can be large; an effect the other way counts as inactive or inconclusive.

`O=C(C[n+]1cccc(Br)c1)c1ccccc1` gave TDP1 cell noCPT 9%, uPA surface inh -2%, DT40 TDP1 CPT -5% and miR-21 reporter -1%.
O=C(NCc1ccc(F)cc1)C1CCN(S(=O)(=O)c2ccc(Br)s2)CC1 was read as TDP1 cell noCPT -16%, uPA surface inh -1%, DT40 TDP1 CPT -20%, miR-21 reporter 7% and TDP1 inh 1%.
For O=C(Nc1cccc(-c2cccc(F)c2)c1)C1CCN(C2CCOCC2)CC1 the results were TDP1 cell noCPT inconclusive, uPA surface inh inconclusive, DT40 TDP1 CPT inconclusive, miR-21 reporter -4% and TDP1 inh -1%.
Screening O=C(C[C@@H]1NS(=O)(=O)OC2CCCCC21)c1ccccc1 (some centres not stated) returned TDP1 cell noCPT -21%, uPA surface inh inconclusive, DT40 TDP1 CPT -3% and miR-21 reporter -3%.
Screening O=C1C(F)=CC(COC(c2ccccc2)(c2ccccc2)c2ccccc2)OC1n1cc(F)c(=O)[nH]c1=O (configuration not stated) returned TDP1 cell noCPT 1.5µM*, uPA surface inh -12% and DT40 TDP1 CPT 1.6µM*.
`C[C@H]1O[C@@H](n2cc(F)c(=O)[nH]c2=O)[C@H](O)[C@@H]1O` gave TDP1 cell noCPT inconclusive, uPA surface inh inconclusive, DT40 TDP1 CPT inconclusive and TDP1 inh 5%[56.1 µM].
CN(C=[N+](C)C)c1cccc2c1C(=O)c1ccccc1C2=O was read as TDP1 cell noCPT inconclusive, uPA surface inh -4%, DT40 TDP1 CPT inconclusive, miR-21 reporter -18% and TDP1 inh 8%.
For O=C1ON=C(c2ccccc2)/C1=C/c1ccccc1 the results were TDP1 cell noCPT -33%, uPA surface inh -5%, DT40 TDP1 CPT 0% and miR-21 reporter -3%.
`Cc1ccc(/C=C2/C(=O)ON=C2c2ccccc2)o1` gave TDP1 cell noCPT 15µM*, uPA surface inh -22%, DT40 TDP1 CPT 21µM*, miR-21 reporter -18% and TDP1 inh -1%.
O=C1ON=C(c2ccc(Cl)cc2)/C1=C/c1ccc(O)cc1 was read as TDP1 cell noCPT 12µM*, uPA surface inh 3%, DT40 TDP1 CPT 7.3µM*, miR-21 reporter 10% and TDP1 inh -2%.
For O=C1ON=C(c2ccccc2)/C1=C/c1ccc(O)cc1 the results were TDP1 cell noCPT inconclusive, uPA surface inh inconclusive, DT40 TDP1 CPT 23µM*, miR-21 reporter -13% and TDP1 inh 4%.
For CSC1=NCCN1S(=O)(=O)c1ccccc1 the results were TDP1 cell noCPT -26%, uPA surface inh -3%, DT40 TDP1 CPT -16%, miR-21 reporter -2% and TDP1 inh 5%.

Four structures already listed, arranged by heavy-atom count, lowest first:
`C[C@H]1O[C@@H](n2cc(F)c(=O)[nH]c2=O)[C@H](O)[C@@H]1O` gave TDP1 cell noCPT inconclusive, uPA surface inh inconclusive, DT40 TDP1 CPT inconclusive and TDP1 inh 5%[56.1 µM].
For O=C1ON=C(c2ccccc2)/C1=C/c1ccccc1 the results were TDP1 cell noCPT -33%, uPA surface inh -5%, DT40 TDP1 CPT 0% and miR-21 reporter -3%.
CN(C=[N+](C)C)c1cccc2c1C(=O)c1ccccc1C2=O was read as TDP1 cell noCPT inconclusive, uPA surface inh -4%, DT40 TDP1 CPT inconclusive, miR-21 reporter -18% and TDP1 inh 8%.
For O=C(Nc1cccc(-c2cccc(F)c2)c1)C1CCN(C2CCOCC2)CC1 the results were TDP1 cell noCPT inconclusive, uPA surface inh inconclusive, DT40 TDP1 CPT inconclusive, miR-21 reporter -4% and TDP1 inh -1%.

Additional compounds.
Screening CSc1nc(N2CCOCC2)cc(N2CCOCC2)n1 returned TDP1 cell noCPT -18%, uPA surface inh -2%, DT40 TDP1 CPT 3%, miR-21 reporter -9% and TDP1 inh 0%.
`CCCCC(=O)Nc1ccc(Cl)cc1F` gave TDP1 cell noCPT 11% and DT40 TDP1 CPT -12%.
For CCc1nc(Nc2ccc(F)c(Cl)c2)c2c3c(sc2n1)CCCC3 the results were TDP1 cell noCPT 5.8µM*, DT40 TDP1 CPT 5.8µM* and miR-21 reporter -2%.
Cc1cc(C)cc(Nc2ncnc3sc4c(c23)CCCC4)c1 was read as TDP1 cell noCPT -22%, DT40 TDP1 CPT -25%, miR-21 reporter -6% and TDP1 inh 3%.
For COc1ccc(/C=N/Nc2ncnc3sc4c(c23)CCCC4)cc1OC the results were TDP1 cell noCPT 16µM*, uPA surface inh -12%, DT40 TDP1 CPT inconclusive, miR-21 reporter -15% and TDP1 inh 3%.
Screening CCc1ccc(Nc2ncnc3sc4c(c23)CCCC4)cc1 returned TDP1 cell noCPT 18µM*, DT40 TDP1 CPT 21µM*, miR-21 reporter 10% and TDP1 inh -5%.
Screening Cc1nc(Nc2cccc(O)c2)c2c3c(sc2n1)CCC3 returned TDP1 cell noCPT 21µM*, uPA surface inh -2%, DT40 TDP1 CPT 18µM* and miR-21 reporter 4%.
Screening COc1ccc(Nc2ncnc3sc4c(c23)CCCC4)cc1 returned TDP1 cell noCPT 0.029µM*, DT40 TDP1 CPT 3.3µM*, miR-21 reporter -30% and TDP1 inh 8%.
CC(=O)Nc1ccc(Nc2ncnc3sc4c(c23)CCCC4)cc1 was read as TDP1 cell noCPT inconclusive, DT40 TDP1 CPT inconclusive, miR-21 reporter -37% and TDP1 inh -1%.
For CN1C(=O)/C(=N\OC(=O)c2cccc3ccccc23)c2ccccc21 the results were TDP1 cell noCPT 13µM*, uPA surface inh 0%, DT40 TDP1 CPT 12µM*, miR-21 reporter -2% and TDP1 inh 4%.
Cc1cccc(/C(N)=N/OC(=O)c2cccc3ccccc23)c1 was read as miR-21 reporter -29% and TDP1 inh -11%.
Screening COc1ccc(C(=O)O/N=C2\C(=O)N(C)c3ccccc32)cc1 returned TDP1 cell noCPT 5.8µM*, uPA surface inh 10% and DT40 TDP1 CPT 7.3µM*.
`Cc1cccc(C(=O)Nc2nnc(S(=O)(=O)N3CCOCC3)s2)c1` gave TDP1 cell noCPT 4%, uPA surface inh -14%, DT40 TDP1 CPT -7%, miR-21 reporter -10% and TDP1 inh 12%.
`CC(C)(C)OC(=O)n1cccc1/C=C1\c2ccccc2C(=O)N1c1ccccc1` gave TDP1 cell noCPT inconclusive, uPA surface inh -7% and DT40 TDP1 CPT 21µM*.
For O=C1c2ccccc2/C(=C\c2ccc(Br)s2)N1c1ccccc1 the results were TDP1 cell noCPT inconclusive, uPA surface inh -11%, DT40 TDP1 CPT inconclusive and TDP1 inh 0%.
`CSc1ccc(OC2CCCCC2NS(=O)(=O)c2ccc(Cl)cc2)cc1` (configuration not stated) gave TDP1 cell noCPT inconclusive, uPA surface inh 2%, DT40 TDP1 CPT 26µM*, miR-21 reporter 8% and TDP1 inh -2%.
For CCN(CC)C1CCCCC1NS(=O)(=O)c1ccc(Cl)cc1 (configuration not stated) the results were TDP1 cell noCPT -13%, uPA surface inh -3%, DT40 TDP1 CPT -21%, miR-21 reporter 0% and TDP1 inh 5%.
For CN(c1ccccc1)C1CCCCC1NS(=O)(=O)c1ccc(Cl)cc1 (configuration not stated) the results were TDP1 cell noCPT 23µM*, uPA surface inh inconclusive, DT40 TDP1 CPT inconclusive, miR-21 reporter 15% and TDP1 inh 0%.
COc1ccc(CCNC(=O)c2cc(=O)c3ccc(C)cc3o2)cc1OC was read as TDP1 cell noCPT 21µM*, uPA surface inh -2%, DT40 TDP1 CPT inconclusive, miR-21 reporter 0% and TDP1 inh 0%.
